Protein sequences, listed by entry. Tags and fused reporters are not part of them.
UniProt O43614, whole entry: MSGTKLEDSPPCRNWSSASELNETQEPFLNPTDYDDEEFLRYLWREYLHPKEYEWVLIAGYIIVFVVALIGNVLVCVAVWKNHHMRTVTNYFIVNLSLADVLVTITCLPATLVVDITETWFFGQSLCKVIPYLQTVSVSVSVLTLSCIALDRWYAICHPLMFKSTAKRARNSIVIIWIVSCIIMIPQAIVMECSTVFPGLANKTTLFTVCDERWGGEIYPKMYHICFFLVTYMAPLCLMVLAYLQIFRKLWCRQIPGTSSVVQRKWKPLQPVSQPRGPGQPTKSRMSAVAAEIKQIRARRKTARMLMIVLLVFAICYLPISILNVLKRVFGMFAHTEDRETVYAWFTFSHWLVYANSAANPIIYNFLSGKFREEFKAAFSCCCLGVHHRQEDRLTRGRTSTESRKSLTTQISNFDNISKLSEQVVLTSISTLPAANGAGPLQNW

One experiment concerns the target T1, OX2 (Homo sapiens, UniProt O43614).
T1 construct: expressed in transfected cells; host or cells: CHO (CHO-OX2, kept under selection antibiotic)
The experiment can be described thus: Orexin receptor cell-based functional assay, [Ca2+]i by FLIPR, CHO-OX2 cells. The note with it: CHO-OX2 cells, [Ca2+]i by FLIPR, antagonist dose-range 0.1 nM-10 μM, EC90 of OXA; read-out: OX2.
In the case of `Cc1ccc(-n2cccn2)c(C(=O)N2CCC[C@@H](C)[C@H]2CNc2ncc(C(F)(F)F)cn2)n1` [Example A166, ((2S,3R)-3-Methyl-2-(((5-(trifluoromethyl)pyrimidin-2-yl)amino)methyl)piperidin-1-yl)(6-methyl-3-(1H-pyrazol-1-yl)pyridin-2-yl)methanone], the IC50 was above 5 µM.

On to `Cc1ccc(-c2ccccn2)c(C(=O)N2CCC[C@@H](C)[C@H]2CNc2nc3cc(Cl)ccc3o2)c1` [Example A32, ((2S,3R)-2-(((5-Chlorobenzo[d]oxazol-2-yl)amino)methyl)-3-methylpiperidin-1-yl)(5-methyl-2-(pyridin-2-yl)phenyl)methanone], for which the IC50 turned out to be 0.42 µM.

Turning to `Cc1ccc(-n2nccn2)c(C(=O)N2CCC[C@@H](C)[C@H]2CNc2ncc(Cl)cn2)c1` [Example A147, ((2S,3R)-2-(((5-Chloropyrimidin-2-yl)amino)methyl)-3-methylpiperidin-1-yl)(5-methyl-2-(2H-1,2,3-triazol-2-yl)phenyl)methanone], the IC50 is above 5 µM.

As to `C[C@@H]1CCCN(C(=O)c2cc(F)ccc2-c2ncccn2)[C@@H]1CNc1ncc(C(F)(F)F)cn1` [Example A227, (5-Fluoro-2-(pyrimidin-2-yl)phenyl)((2S,3R)-3-methyl-2-(((5-(trifluoromethyl)pyrimidin-2-yl)amino)methyl)piperidin-1-yl)methanone], the IC50 is above 5 µM.

As to `Cc1ccc(-c2ncccn2)c(C(=O)N2CCC[C@@H](C)[C@H]2CNc2nc3cc(Cl)ccc3o2)c1` [Example A205, ((2S,3R)-2-(((5-Chlorobenzo[d]oxazol-2-yl)amino)methyl)-3-methylpiperidin-1-yl)(5-methyl-2-(pyrimidin-2-yl)phenyl)methanone], the IC50 amounted to 0.35 µM.

Consider `Cc1ccc(-c2ncccn2)c(C(=O)N2CCC[C@@H](C)[C@H]2CNc2ccc(C(F)(F)F)nn2)c1` [Example A137, ((2S,3R)-3-Methyl-2-(((6-(trifluoromethyl)pyridazin-3-yl)amino)methyl)piperidin-1-yl)(5-methyl-2-(pyrimidin-2-yl)phenyl)methanone], for which the IC50 is above 5 µM.

On to `Cc1ccc(-n2nccn2)c(C(=O)N2CCC[C@@H](C)[C@H]2CN(C)c2ccc(C(F)(F)F)cn2)n1` [Example A194, ((2S,3R)-3-Methyl-2-((methyl(5-(trifluoromethyl)pyridin-2-yl)amino)methyl)piperidin-1-yl)(6-methyl-3-(2H-1,2,3-triazol-2-yl)pyridin-2-yl)methanone], for which the IC50 was above 5 µM.

As for `C[C@@H]1CCCN(C(=O)c2cc(Cl)ccc2-n2nccn2)[C@@H]1CNc1ncc(C(F)(F)F)cn1` [Example A160, (5-Chloro-2-(2H-1,2,3-triazol-2-yl)phenyl)((2S,3R)-3-methyl-2-(((5-(trifluoromethyl)pyrimidin-2-yl)amino)methyl)piperidin-1-yl)methanone], the IC50 was 1.3 µM.

For `Cc1cccc(C(=O)N2CCC[C@@H](C)[C@H]2CNc2ccc(C(F)(F)F)cn2)c1-c1ncccn1` [Example A298, ((2S,3R)-3-Methyl-2-(((5-(trifluoromethyl)pyridin-2-yl)amino)methyl)piperidin-1-yl)(3-methyl-2-(pyrimidin-2-yl)phenyl)methanone], the IC50 was determined as 0.483 µM.

For `Cc1ccc(-n2nccn2)c(C(=O)N2CCC(F)(F)C[C@H]2CNc2ncc(C(F)(F)F)cn2)c1` [Example A211, (S)-(4,4-Difluoro-2-(((5-(trifluoromethyl)pyrimidin-2-yl)amino)methyl)piperidin-1-yl)(5-methyl-2-(2H-1,2,3-triazol-2-yl)phenyl)methanone], the IC50 is above 5 µM.

On to `COc1ccc(-n2nccn2)c(C(=O)N2CCC[C@@H](C)[C@H]2CNc2ncc(C(F)(F)F)cn2)c1F` [Example A339, (2-Fluoro-3-methoxy-6-(2H-1,2,3-triazol-2-yl)phenyl)((2S,3R)-3-methyl-2-(((5-(trifluoromethyl)pyrimidin-2-yl)amino)methyl)piperidin-1-yl)methanone], for which the IC50 was above 5 µM.

Take `Cc1ccc(-n2ncc(C)n2)c(C(=O)N2CCC[C@@H](C)[C@H]2CNc2nc3cc(Cl)ccc3o2)c1` [Example A116, ((2S,3R)-2-(((5-Chlorobenzo[d]oxazol-2-yl)amino)methyl)-3-methylpiperidin-1-yl)(5-methyl-2-(4-methyl-2H-1,2,3-triazol-2-yl)phenyl)methanone]: the IC50 came to 1.1 µM.

For the compound `Cc1ccc(-c2ncccn2)c(C(=O)N2CCC(F)(F)C[C@H]2CNc2ncc(C(F)(F)F)cn2)c1` [Example A312, (S)-(4,4-Difluoro-2-(((5-(trifluoromethyl)pyrimidin-2-yl)amino)methyl)piperidin-1-yl)(5-methyl-2-(pyrimidin-2-yl)phenyl)methanone], the IC50 was above 5 µM.

As to `C[C@@H]1CCCN(C(=O)c2ccc(F)cc2-n2nccn2)[C@@H]1CNc1ncc(C(F)(F)F)cn1` [Example A251, (4-Fluoro-2-(2H-1,2,3-triazol-2-yl)phenyl)((2S,3R)-3-methyl-2-(((5-(trifluoromethyl)pyrimidin-2-yl)amino)methyl)piperidin-1-yl)methanone], the IC50 was above 5 µM.

As for `C[C@@H]1CCCN(C(=O)c2ccccc2-c2ncccn2)[C@@H]1CNc1ncc(C(F)(F)F)cn1` [Example A317, ((2S,3R)-3-Methyl-2-(((5-(trifluoromethyl)pyrimidin-2-yl)amino)methyl)piperidin-1-yl)(2-(pyrimidin-2-yl)phenyl)methanone], the IC50 is above 1 µM.

For `C[C@@H]1CCCN(C(=O)c2c(F)cccc2-n2nccn2)[C@@H]1CNc1ccc(Cl)cn1` [Example A261, ((2S,3R)-2-(((5-Chloropyridin-2-yl)amino)methyl)-3-methylpiperidin-1-yl)(2-fluoro-6-(2H-1,2,3-triazol-2-yl)phenyl)methanone], the IC50 was above 5 µM.

As to `Cc1ccc(-n2nccn2)c(C(=O)N2CCC[C@@H](C)[C@H]2CNc2ncc(C#N)cn2)c1` [Example A134, 2-((((2S,3R)-3-Methyl-1-(5-methyl-2-(2H-1,2,3-triazol-2-yl)benzoyl)piperidin-2-yl)methyl)amino)pyrimidine-5-carbonitrile], the IC50 is above 5 µM.

In the case of `Cc1ccc(-c2ncccn2)c(C(=O)N2CCC[C@@H](C)[C@H]2CNc2ncc(C(F)(F)F)cn2)c1` [Example A212, ((2S,3R)-3-Methyl-2-(((5-(trifluoromethyl)pyrimidin-2-yl)amino)methyl)piperidin-1-yl)(5-methyl-2-(pyrimidin-2-yl)phenyl)methanone], the IC50 was 3.3 µM.

Take `Cc1ccc(-c2cnn(C)c2)c(C(=O)N2CCC[C@@H](C)[C@H]2CNc2ncccc2C(F)(F)F)c1` [Example A93, ((2S,3R)-3-Methyl-2-(((3-(trifluoromethyl)pyridin-2-yl)amino)methyl)piperidin-1-yl)(5-methyl-2-(1-methyl-1H-pyrazol-4-yl)phenyl)methanone]: the IC50 was above 5 µM.

As for `Cc1ccc(-c2ccccn2)c(C(=O)N2CCC[C@@H](C)[C@H]2CNc2ccc(Cl)cn2)c1` [Example A117, ((2S,3R)-2-(((5-chloropyridin-2-yl)amino)methyl)-3-methylpiperidin-1-yl)(5-methyl-2-(pyridin-2-yl)phenyl)methanone], the IC50 is above 5 µM.

Regarding `Cc1ccc(-n2nccn2)c(C(=O)N2CCC[C@@H](C)[C@H]2CNc2ccc(C(F)(F)F)cn2)n1` [Example A174, ((2S,3R)-3-Methyl-2-(((5-(trifluoromethyl)pyridin-2-yl)amino)methyl)piperidin-1-yl)(6-methyl-3-(2H-1,2,3-triazol-2-yl)pyridin-2-yl)methanone], the IC50 was above 5 µM.

For the compound `C[C@@H]1CCCN(C(=O)c2cc(F)ccc2-n2nccn2)[C@@H]1CNc1ccc(C(F)(F)F)cn1` [Example A310], the IC50 was above 5 µM.

Still in this experiment, the particulars now being: Table 2; CHO-OX2 cells, EC90 of OXA; read-out: IC50 Bioactivity OX2.
Consider `CO[C@H]1C[C@@H](CNC(=O)c2cccc3cccnc23)N(C(=O)c2ccccc2-c2ccccc2)C1` [Example 127, N-(((2S,4S)-1-([1,1′-Biphenyl]-2-carbonyl)-4-methoxypyrrolidin-2-yl)methyl)quinoline-8-carboxamide], for which the IC50 came to 0.025 µM.

Consider `C[C@@H]1CCCN(C(=O)c2ccccc2Oc2ccccc2)[C@@H]1CNc1ccc(C(F)(F)F)cn1` (racemic) [Example 118, rac-cis-(3-Methyl-2-(((5-(trifluoromethyl)pyridin-2-yl)amino)methyl)piperidin-1-yl) (2-phenoxyphenyl)methanone], for which the IC50 is above 10 µM.

For the compound `Cc1cc2c(C(=O)NCC3CCCC(C)N3C(=O)c3nc(C)sc3-c3ccc(F)cc3)cccc2o1` (racemic) [Example 61, rac-N-((1-(5-(4-Fluorophenyl)-2-methylthiazole-4-carbonyl)-6-methylpiperidin-2-yl)methyl)-2-methylbenzofuran-4-carboxamide], the IC50 worked out at 0.38 µM.

Take `COc1ccnc(NC[C@@H]2[C@H](C)CCCN2C(=O)c2nc(C)sc2-c2ccc(F)cc2)n1` (racemic) [Example 17, rac-cis-(5-(4-Fluorophenyl)-2-methylthiazol-4-yl)(2-(((4-methoxypyrimidin-2-yl)amino)methyl)-3-methylpiperidin-1-yl)methanone]: the IC50 came out at 1.8 µM.

As for `Cc1ccc(-n2nccn2)c(C(=O)N2CCC[C@@H](C)[C@H]2CNc2ccc(C(F)(F)F)cn2)c1` (racemic) [Example 114, rac-cis-(3-Methyl-2-(((5-(trifluoromethyl)pyridin-2-yl)amino)methyl)piperidin-1-yl)(5-methyl-2-(2H-1,2,3-triazol-2-yl)phenyl)methanone], the IC50 is above 10 µM.

With `Cc1nc(C(=O)N2CCC[C@@H](C)[C@H]2CNc2ccnc(Cl)n2)c(-c2ccc(F)cc2)s1` (racemic) [Example 19, rac-cis-(2-(((2-Chloropyrimidin-4-yl)amino)methyl)-3-methylpiperidin-1-yl)(5-(4-fluorophenyl)-2-methylthiazol-4-yl)methanone], the IC50 was above 10 µM.

Values taken from patent publication US9440982B2 (Eolas Therapeutics, Inc., priority 2012, dated 2016).
